# Values quoted from earlier work, collected in US20200000816A1, “COMPOUND HAVING SOMATOSTATIN RECEPTOR AGONISTIC ACTIVITY AND PHARMACEUTICAL USE THEREOF” (ONO PHARMACEUTICAL CO., LTD., priority 2017, published 2020).
# The chains behind the UniProt entries cited, without tags or fusion partners.
# UniProt P30872, whole entry, species assumed: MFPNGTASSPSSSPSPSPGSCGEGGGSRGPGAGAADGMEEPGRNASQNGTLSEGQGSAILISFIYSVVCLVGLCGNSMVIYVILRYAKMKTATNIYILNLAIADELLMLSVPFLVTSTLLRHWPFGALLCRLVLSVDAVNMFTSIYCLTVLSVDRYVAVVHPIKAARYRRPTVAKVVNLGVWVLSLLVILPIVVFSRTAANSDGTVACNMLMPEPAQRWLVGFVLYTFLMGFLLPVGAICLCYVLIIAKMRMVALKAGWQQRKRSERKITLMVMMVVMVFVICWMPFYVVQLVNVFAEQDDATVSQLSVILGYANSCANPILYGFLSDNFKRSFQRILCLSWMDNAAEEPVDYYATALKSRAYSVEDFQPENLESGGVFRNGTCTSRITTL
# UniProt P30874, whole entry, species assumed: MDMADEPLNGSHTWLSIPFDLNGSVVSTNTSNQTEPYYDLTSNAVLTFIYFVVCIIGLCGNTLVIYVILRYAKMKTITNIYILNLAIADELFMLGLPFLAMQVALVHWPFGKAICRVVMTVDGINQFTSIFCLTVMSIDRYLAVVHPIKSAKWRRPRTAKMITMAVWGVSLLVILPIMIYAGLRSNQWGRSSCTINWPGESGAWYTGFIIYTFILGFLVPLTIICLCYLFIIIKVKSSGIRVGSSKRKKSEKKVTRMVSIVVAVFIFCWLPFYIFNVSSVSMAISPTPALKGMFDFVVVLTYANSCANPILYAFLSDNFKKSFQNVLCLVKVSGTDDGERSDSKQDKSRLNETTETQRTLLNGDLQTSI
# UniProt P35346, whole entry, species assumed: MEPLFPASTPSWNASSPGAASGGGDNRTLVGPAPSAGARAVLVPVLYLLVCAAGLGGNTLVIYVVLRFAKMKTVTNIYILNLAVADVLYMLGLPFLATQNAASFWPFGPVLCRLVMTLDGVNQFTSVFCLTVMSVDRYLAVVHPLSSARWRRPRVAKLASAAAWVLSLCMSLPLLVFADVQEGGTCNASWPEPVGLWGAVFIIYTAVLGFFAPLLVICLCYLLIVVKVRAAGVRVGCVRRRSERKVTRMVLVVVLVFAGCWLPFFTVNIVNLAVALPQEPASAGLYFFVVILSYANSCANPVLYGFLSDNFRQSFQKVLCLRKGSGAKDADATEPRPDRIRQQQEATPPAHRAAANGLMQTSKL
# UniProt P32745, whole entry, species assumed: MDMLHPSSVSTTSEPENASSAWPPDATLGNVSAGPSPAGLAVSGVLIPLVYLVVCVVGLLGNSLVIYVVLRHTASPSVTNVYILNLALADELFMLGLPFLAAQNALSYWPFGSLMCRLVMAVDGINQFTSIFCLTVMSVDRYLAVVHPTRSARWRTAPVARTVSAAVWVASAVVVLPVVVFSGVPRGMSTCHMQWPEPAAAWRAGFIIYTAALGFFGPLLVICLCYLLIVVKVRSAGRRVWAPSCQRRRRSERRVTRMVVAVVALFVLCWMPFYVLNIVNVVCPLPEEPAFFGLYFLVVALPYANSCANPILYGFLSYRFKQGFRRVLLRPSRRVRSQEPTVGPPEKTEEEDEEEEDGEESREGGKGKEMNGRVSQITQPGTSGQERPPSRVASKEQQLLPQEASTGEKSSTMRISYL
# UniProt P31391, whole entry, species assumed: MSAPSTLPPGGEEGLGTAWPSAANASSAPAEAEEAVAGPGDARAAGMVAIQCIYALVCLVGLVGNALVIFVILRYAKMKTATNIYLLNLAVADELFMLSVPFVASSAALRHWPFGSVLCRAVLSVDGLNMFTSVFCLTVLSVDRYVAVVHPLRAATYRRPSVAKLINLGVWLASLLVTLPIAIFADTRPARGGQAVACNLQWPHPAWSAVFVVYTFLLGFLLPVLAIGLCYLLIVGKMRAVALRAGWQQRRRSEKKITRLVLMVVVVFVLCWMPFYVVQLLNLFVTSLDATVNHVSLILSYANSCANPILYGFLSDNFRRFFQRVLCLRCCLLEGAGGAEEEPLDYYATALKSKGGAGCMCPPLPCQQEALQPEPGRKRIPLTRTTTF
# Legend:
# Conditions in all cases: reported in background art; cited from earlier work
# [1] = molecular target: somatostatin receptor subtype 1 (SSTR1) (Homo sapiens, UniProt P30872)
# [2] = molecular target: somatostatin receptor subtype 2 (SSTR2) (Homo sapiens, UniProt P30874)
# [3] = molecular target: somatostatin receptor subtype 5 (SSTR5) (Homo sapiens, UniProt P35346)
# [4] = molecular target: somatostatin receptor subtype 3 (SSTR3) (Homo sapiens, UniProt P32745)
# [5] = molecular target: somatostatin receptor subtype 4 (SSTR4) (Homo sapiens, UniProt P31391)
substance,measurement,setting,value
octreotide acetate,binding to SSTR1,[1],do not bind
same,binding affinity to SSTR2,[2],high affinity
same,binding affinity to SSTR5,[3],moderate affinity
same,binding affinity to SSTR3,[4],moderate affinity
same,binding to SSTR4,[5],do not bind
